Assay results reported in article PMC9770967, “Native holdup (nHU) to measure binding affinities from cell extracts” (Science Advances, 2022).

Experiments:
[1] = target: recombinant full-length SNX27 (1-541) fused to an N-terminal biotinylated-MBP and C-terminal His6 tag (UniProt Q96L92); test: other; printed as pKapp 4.93
[2] = target: biotinylated PDZ-binding motif (PBM) peptide of diacylglycerol kinase zeta (DGKZ); test: native holdup (nHU) with Western blot; titration; biotinylated DGKZ PBM peptide on streptavidin resin as bait, mixed with biotin-saturated control resin at constant resin/analyte ratio; total Jurkat extract (2 mg/ml) as analyte; 4°C, 2 hours; prey depletion in the supernatant read by Western blot; apparent constants; three replicates

Row | Kd [1] [µM] | pKapp (negative logarithm of the apparent dissociation constant) [2] [pKapp] | Substance
1 | 11.7 | – | VPS35
2 | – | 6.4 | full-length SNX27 endogenously present in Jurkat extract (from UniProt Q96L92 1-541) (natural protein)
